1 compound from patent US10730889B2 can be followed below.

The assay concerns A2780 cells. Nature of the assay: In-vitro cell proliferation assay. It is filed as cell-based. To be noted: read-out: Cell Proliferation (IC50), 72 hours, SRB.

Molecules are shown by their SMILES.

Regarding `O=C(NCC1CC12CCN(C(=O)c1cncnc1)CC2)c1cc2ccncc2o1` (stereo not shown), the IC50 amounted to 2000 nM.
